In article PMC4358366 (2014):

Biological target: H3K27Cr peptide (UniProt P68431, crotonyl-lysine at 27)
Experiment: ITC

- Kd: 157 µM
B1: recombinant human Sirt3 (102–399) (enzyme)
chain: ISFSVGASSVVGSGGSSDKGKLSLQDVAELIRARACQRVVVMVGAGISTPSGIPDFRSPGSGLYSNLQQYDLPYPEAIFELPFFFHNPKPFFTLAKELYPGNYKPNVTHYFLRLLHDKGLLLRLYTQNIDGLERVSGIPASKLVEAHGTFASATCTVCQRPFPGEDIRADVMADRVPRCPVCTGVVKPDIVFFGEPLPQRFLLHVVDFPMADLLLILGTSLEVEPFASLTEAVRSSVPRLLINRDLVGPLAWHPRSRDVAQLGDVVHGVESLVELLGWTEEMRDLVQRETGKLDGPDK
